{
  "sequences": {"note": "Amino acid sequences for entries named in this document (tags omitted). Residues count along the entry.", "UniProt A0A5F9CRP6, 1-555": "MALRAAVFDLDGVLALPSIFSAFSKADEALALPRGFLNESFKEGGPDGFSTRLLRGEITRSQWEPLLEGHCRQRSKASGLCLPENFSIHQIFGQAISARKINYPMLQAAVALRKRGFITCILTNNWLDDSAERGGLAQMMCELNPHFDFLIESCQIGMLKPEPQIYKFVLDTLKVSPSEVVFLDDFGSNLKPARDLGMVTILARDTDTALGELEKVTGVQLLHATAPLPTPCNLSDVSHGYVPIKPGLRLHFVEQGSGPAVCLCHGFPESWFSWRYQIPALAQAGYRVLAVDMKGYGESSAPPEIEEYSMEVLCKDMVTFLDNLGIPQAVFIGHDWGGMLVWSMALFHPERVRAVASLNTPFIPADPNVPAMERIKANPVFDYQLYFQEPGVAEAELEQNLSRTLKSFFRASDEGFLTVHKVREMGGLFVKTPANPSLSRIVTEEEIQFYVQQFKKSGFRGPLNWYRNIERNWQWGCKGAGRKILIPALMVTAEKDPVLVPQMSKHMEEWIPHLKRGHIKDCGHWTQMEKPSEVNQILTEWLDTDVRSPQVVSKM"},
  "source": "paper PMC5218821",
  "about": "“Effect of a Soluble Epoxide Hydrolase Inhibitor, UC1728, on LPS-Induced Uveitis in the Rabbit” (Journal of ocular biology, 2016)",
  "target": "T1, soluble epoxide hydrolase (sEH) (Oryctolagus cuniculus, UniProt A0A5F9CRP6)",
  "T1 construct": "gene ADAM2",
  "assay": "biochemical",
  "data": [
    {"smiles": "O=C(Nc1ccc(OC(F)(F)F)cc1)N[C@H]1CC[C@H](Oc2ccc(C(=O)O)cc2)CC1", "note": "[UC1728, trans-4-{4-[3-(4-Trifluoromethoxy-phenyl)-ureido]-cyclohexyloxy}-benzoic acid]", "values": [
      {"measurement": "IC50", "result": 2, "unit": "nM"}
    ]}
  ]
}
